# Antibody variant affinities, Ab-14 light chain, assay B

Values reported by Li et al. 2023, doi:10.1038/s41467-023-39022-2 (FLAb copy).

Target peptide (SARS-CoV-2 spike, HR2 region): PDVDLGDISGINAS

Each scFv is VH, three GGGGS repeats, VL, as in the parent Ab-14, and differs from it in the CDRs of the light chain only.
VH: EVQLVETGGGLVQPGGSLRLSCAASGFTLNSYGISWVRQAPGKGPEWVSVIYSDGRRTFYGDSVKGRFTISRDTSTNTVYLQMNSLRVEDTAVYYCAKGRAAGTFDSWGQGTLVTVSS
VL: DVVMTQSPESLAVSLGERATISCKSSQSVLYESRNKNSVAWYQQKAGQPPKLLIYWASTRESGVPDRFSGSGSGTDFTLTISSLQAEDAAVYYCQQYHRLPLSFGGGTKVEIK

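The parent was found by panning a naive human phage display library on the peptide. These sequences belong to a second round, designed from the earlier measurements on random variants of the parent. Group labels follow the data file (En: ensemble of fine-tuned language models; GP: Gaussian process model; HC: hill climbing; Gen: genetic algorithm; Gibbs: Gibbs sampling; a sequence that several methods proposed may carry one label only). Affinity was read by AlphaSeq, a pooled yeast mating assay with surface-displayed partners. Mating (16 h, 30 °C) was followed by selection of diploids and sequencing of their barcodes. The ratio of observed to expected reads was calibrated, replicate by replicate, on BCL2-family standards whose Kd was known from biolayer interferometry. Each pool was mated in six replicate cultures.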

The parent's light chain CDRs are KSSQSVLYESRNKNSVA, WASTRES, QQYHRLPLS; each variant's own CDRs replace them letter for letter.
Variants here have more than six changes.
The Kd shown is the geometric mean over detected replicates; a lower Kd is a better binder.
"nd" means that the variant was in the library but no mating with the target was seen in any replicate; the authors take this as a sign of poor binding, and no number exists.
Order: sorted from the lowest average up, undetected variants last.

For KLSQSGWMESRNKNNVA / EASQRES / QQYHRLPLS [GP_Gibbs], the assay gave 330 pM (6 of 6 replicates). For KLQMSMLYESRMHNSVA / DASVRES / QQYHRLPLS [GP_Gibbs], the assay gave 450 pM (6 of 6 replicates). Variant KLSFGNLYESRNQNSVA / EASTRLQ / QQYHRLPLS [GP_Gibbs] showed 1.1 nM (6 of 6 replicates). With KIGATLNTLSHKQNNVA / DLVEREN / QQYFRLPLS [En_Gen] the result was 1.2 nM (6 of 6 replicates). For KLSQGWLQESRNANNVA / NASRREQ / QQYHRLPLS [GP_Gibbs], the assay gave 1.3 nM (6 of 6 replicates).

Variant MISGSVMSESRLKNNVA / QTTTRES / QQYDRLPLS [En_HC] gave 1.8 nM (6 of 6 replicates). With TGNVELAQGVHEMNNVA / DGDQKLD / QQYYRLPLA [En_Gibbs] the result was 2.2 nM (6 of 6 replicates). With MISQLNNMGSFAINSVA / QASLRNE / QQYDRLPLT [En_Gen] the result was 2.4 nM (6 of 6 replicates). Variant KVSNQADYEDRNKNSVA / SASTRES / QQYHRLPLS [GP_Gibbs] showed 2.5 nM (6 of 6 replicates). With MFDWGELPNGQKTSSIA / QGHMRAG / QQYYQLPLC [En_Gibbs] the result was 2.8 nM (6 of 6 replicates).

With NISSSMYFQSRNKNNIA / EMSTRER / QHYHRLPLS [En_HC] the result was 3.7 nM (6 of 6 replicates). For KLTATMRFEQSKSNNIA / EVTQRSK / QQYARLPLA [En_Gen], the assay gave 3.9 nM (6 of 6 replicates). Variant KLSQHVEYESRLKNSVA / NASTRLK / QQYHRLPLS [GP_Gibbs] showed 4.5 nM (6 of 6 replicates). With TISQMSTLFSQNINNVA / EVSTRLN / QQYDRLPLM [En_Gen] the result was 7.0 nM (6 of 6 replicates). Variant KISQMVRVGSTHVNSIA / EEVTRAK / QQYHRLPLA [En_Gen] gave 9.7 nM (6 of 6 replicates).

Variant RMNKFMSGATEAKNSMA / GVEHRAN / QSYHRLPLS [En_Gibbs] showed 12 nM (6 of 6 replicates). With TIFQGRSYLDGDERNIA / DARTRND / QQYNRLPLV [En_Gibbs] the result was 12 nM (6 of 6 replicates). With HISQSVGMTSRNKNSVA / ENSTREP / QQYDRLPLS [En_HC] the result was 13 nM (2 of 6 replicates). For MLNGPVEIEQHKWNSVA / SAEITAM / QQYGRLPFS [En_Gibbs], the assay gave 16 nM (3 of 6 replicates). With QFDTNLHYMGANKNSVA / EMTEKTI / QQYHRLPIE [En_Gibbs] the result was 22 nM (6 of 6 replicates).

Variant TIGGTLMYGYRNRSNVA / EVSQRLN / QQYDRLPLV [En_Gen] gave 30 nM (1 of 6 replicates). For NLSDGEMYENATRSNVA / NTSMRDF / QQYNRLPLD [En_Gibbs], the assay gave 32 nM (6 of 6 replicates). Variant KLMMSLQGNPKDWYAIA / EGISATT / QQYARLPLM [En_Gibbs] gave 34 nM (2 of 6 replicates). Variant KLSGLMASSKFAKDNVA / ENNTREV / QQYDRLPLS [En_Gen] gave 74 nM (4 of 6 replicates). For MISQLYNMGQFAINSVA / QASNRNE / QQYDRLPLI [En_Gen], the assay gave 82 nM (6 of 6 replicates).

With KIGHGLTTESRNRNSVA / QTETRVP / QHYHRLPLS [En_HC] the result was 97 nM (5 of 6 replicates). Variant IISGFMLMESRNKNSVA / NAETREY / QHYDRLPLS [En_HC] gave 120 nM (5 of 6 replicates). For KLSMSALMESFHKNSVA / ENSTREE / QHYHRLPLS [En_HC], the assay gave 630 nM (2 of 6 replicates). With SMETHSQDNRLDWSAVA / EAQTIYQ / QQYARLPLS [En_Gibbs] the result was nd (0 of 6 replicates). For QLSGPMMSESKNKNSVA / EFSTRGS / QQYHRLPLS [En_HC], the assay gave nd (0 of 6 replicates).

Variant KLMNQMGGIEQMKNSIA / NLEIGAR / QQYAHLPLV [En_Gibbs] showed nd (0 of 6 replicates). For SLAESAHLESRNKNSVA / DNSTRES / QHYDRLPLS [En_HC], the assay gave nd (0 of 6 replicates). For TLSQMSGVEMVKHNNVA / ENSTREK / QQYDRLPLA [En_Gen], the assay gave nd (0 of 6 replicates).

Again, the first 3 entries without any signal:

CDR-L1,CDR-L2,CDR-L3,group,apparent Kd,seen in
SMETHSQDNRLDWSAVA,EAQTIYQ,QQYARLPLS,En_Gibbs,nd,0 of 6
QLSGPMMSESKNKNSVA,EFSTRGS,QQYHRLPLS,En_HC,nd,0 of 6
KLMNQMGGIEQMKNSIA,NLEIGAR,QQYAHLPLV,En_Gibbs,nd,0 of 6

The parent sequence was in this pool as ten entries: three were never detected, three once, and four in most replicates, with averages from 2.2 nM to 240 nM.
The authors' rule: three or more of the six replicates give a measured affinity, fewer mean a poor binder.
A sequence measured in both rounds can read differently, since the two assays cover different ranges.
Three control strains display no target. For all light chain designs, 4% of the pairings with them gave a signal, with a median of 430 nM and one signal in twenty below 38 nM, so weak values seen in few replicates may be background.